Literature values as cited in patent US20250041322A1, “HEAT STRESS RELIEVING AGENT” (Hayashibara Co., Ltd., priority 2018, published 2025).

For α-glycosyl hesperidin, the “Water solubility, comparison in words” value is given as “more water-soluble than hesperidin and 7-O-β-glucosyl hesperetin”.
